Reference: patent US7728107B2 (priority 2005, dated 2010)

Protein sequences, listed by entry. Tags and fused reporters are not part of them.
UniProt P41595, whole entry: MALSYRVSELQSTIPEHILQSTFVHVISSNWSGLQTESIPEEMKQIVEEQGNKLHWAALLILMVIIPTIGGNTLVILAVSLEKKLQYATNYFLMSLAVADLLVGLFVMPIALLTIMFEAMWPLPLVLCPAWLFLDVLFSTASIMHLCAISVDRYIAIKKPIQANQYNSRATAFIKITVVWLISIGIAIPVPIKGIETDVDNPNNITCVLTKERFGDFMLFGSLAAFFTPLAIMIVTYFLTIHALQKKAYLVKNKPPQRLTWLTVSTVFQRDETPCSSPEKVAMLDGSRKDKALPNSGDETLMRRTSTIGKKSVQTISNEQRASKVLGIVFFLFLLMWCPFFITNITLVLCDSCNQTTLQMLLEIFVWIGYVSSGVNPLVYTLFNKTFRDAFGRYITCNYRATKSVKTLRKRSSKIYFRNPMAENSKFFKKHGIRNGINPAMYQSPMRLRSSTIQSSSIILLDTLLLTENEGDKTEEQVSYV
UniProt P28223, whole entry: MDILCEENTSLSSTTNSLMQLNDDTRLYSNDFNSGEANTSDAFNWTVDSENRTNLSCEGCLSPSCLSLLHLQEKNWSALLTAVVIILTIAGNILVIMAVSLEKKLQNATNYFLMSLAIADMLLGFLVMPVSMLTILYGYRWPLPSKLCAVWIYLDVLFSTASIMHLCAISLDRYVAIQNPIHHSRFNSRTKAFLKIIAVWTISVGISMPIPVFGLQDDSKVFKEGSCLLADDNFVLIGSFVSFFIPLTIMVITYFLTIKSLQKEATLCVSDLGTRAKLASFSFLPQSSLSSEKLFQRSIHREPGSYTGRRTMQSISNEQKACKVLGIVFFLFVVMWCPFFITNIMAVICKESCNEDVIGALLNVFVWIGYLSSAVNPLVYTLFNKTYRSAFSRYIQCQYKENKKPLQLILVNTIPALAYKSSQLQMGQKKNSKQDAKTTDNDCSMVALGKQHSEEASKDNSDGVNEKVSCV

Legend:
human 5-HT2B receptor [1] = target: T1, human 5-HT2B receptor (Homo sapiens, UniProt P41595); test: biochemical; format: binding; set-up: expressed in transfected cells; conditions: for Affinity constant pKI h5-HT2B: CHO membranes, head: [^3H]-mesulergine, mean ± S.E.M of 3-8 experiments
human 5-HT2B receptor [2] = target: T1, human 5-HT2B receptor; conditions: CHO, Ca^2+ FLIPR, apparent pKB, mean ± S.E.M of 3 to 6 experiments
human 5-HT2A receptor = human 5-HT2A receptor (Homo sapiens, UniProt P28223); test: biochemical

Compound | Ki (human 5-HT2B receptor [1]) [nM] | Affinity constant pKI h5-HT2B (human 5-HT2B receptor [1]) | Antagonist affinity pKB h5-HT2B (human 5-HT2B receptor [2]) | Ki (human 5-HT2A receptor) [nM]
CC(N)Cc1c[nH]c2ccc(OCc3cccs3)cc12 (centres unmarked) [1-{5-(2-thienyl-methoxy)-1H-3-indolyl}propan-2-amine] | 7.76 | – | – | –
CSc1ccc2c(c1)C(N1CCN(C)CC1)Cc1ccccc1S2 (centres unmarked) [Methiothepin, methiothepin] | – | 8.38 ± 0.03 | 8.28 ± 0.03 | –
Clc1cccc(N2CCNCC2)c1 [m-CPP, 1-(3-chlorophenyl)piperazine] | – | 7.54 ± 0.07 | – | 87.1
